Reference: ChEMBL document CHEMBL1124756, “The discovery of potent nonpeptide angiotensin II receptor antagonists: a new class of potent antihypertensives” (J Med Chem, 1990)

Protein sequences, listed by entry. Tags and fused reporters are not part of them. Lines headed by an entry give the natural chain unless they say otherwise; changes in a name come on top.
UniProt P29089: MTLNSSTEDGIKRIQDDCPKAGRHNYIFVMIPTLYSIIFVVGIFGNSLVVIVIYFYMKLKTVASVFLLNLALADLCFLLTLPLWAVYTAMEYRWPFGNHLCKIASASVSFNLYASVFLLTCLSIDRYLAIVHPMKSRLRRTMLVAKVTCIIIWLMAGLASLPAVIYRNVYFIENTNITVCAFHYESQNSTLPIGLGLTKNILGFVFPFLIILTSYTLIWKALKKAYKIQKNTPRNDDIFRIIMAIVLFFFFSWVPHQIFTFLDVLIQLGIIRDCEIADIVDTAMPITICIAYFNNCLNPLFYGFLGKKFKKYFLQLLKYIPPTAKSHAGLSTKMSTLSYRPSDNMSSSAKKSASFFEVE
UniProt P25095: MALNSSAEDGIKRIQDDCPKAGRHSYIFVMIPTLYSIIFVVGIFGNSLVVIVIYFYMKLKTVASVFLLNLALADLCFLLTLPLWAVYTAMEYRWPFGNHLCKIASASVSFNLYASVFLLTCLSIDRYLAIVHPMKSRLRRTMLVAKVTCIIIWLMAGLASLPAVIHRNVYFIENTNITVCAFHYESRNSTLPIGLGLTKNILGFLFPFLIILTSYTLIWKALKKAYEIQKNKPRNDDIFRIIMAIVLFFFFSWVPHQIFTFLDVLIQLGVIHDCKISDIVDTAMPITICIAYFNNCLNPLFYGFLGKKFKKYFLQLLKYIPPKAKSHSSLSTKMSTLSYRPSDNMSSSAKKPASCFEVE
UniProt P35351: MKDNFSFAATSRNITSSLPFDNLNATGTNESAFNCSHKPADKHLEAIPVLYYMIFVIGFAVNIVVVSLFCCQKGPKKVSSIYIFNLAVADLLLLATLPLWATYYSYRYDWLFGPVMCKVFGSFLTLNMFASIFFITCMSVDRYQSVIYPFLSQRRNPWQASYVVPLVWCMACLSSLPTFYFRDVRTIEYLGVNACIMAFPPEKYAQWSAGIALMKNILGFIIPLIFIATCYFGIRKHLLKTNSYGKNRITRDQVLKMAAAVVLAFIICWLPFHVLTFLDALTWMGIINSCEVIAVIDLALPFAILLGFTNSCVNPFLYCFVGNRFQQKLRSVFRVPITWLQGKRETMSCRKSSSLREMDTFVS

Target: Angiotensin II receptor (Rattus norvegicus, UniProt P29089+P25095+P35351)
Assay: Inhibitory concentration that gave 50 percent displacement of specific binding of [3H]AII (2 nM) to Angiotensin II receptor
Assay type: protein assay
Procedure, shortened: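 Rat adrenal cortical microsomes from male Sprague–Dawley rats, resuspended in 50 mM Tris pH 7.2, 5 mM MgCl2, 0.25% BSA. Membranes (0.02–0.03 mg protein) incubated with [3H]AII 2 nM plus varying inhibitor concentrations, 60 min at 25 °C with shaking. Glass-fiber filtration, scintillation counting, duplicates. Nonspecific binding defined with 1 μM unlabeled AII. IC50 taken from linear portion of displacement curve.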

IC50: 40 µM
SMILES: CCCCc1nc(Cl)c(CC(=O)O)n1Cc1ccccc1Cl
